From US5017489A (priority 1988, dated 1991)
Several values for one entry are separate records, joined by “and”; a condition that tells them apart may be missing. Equal entries are not always repeated. Where two headings read alike, the source gives them in different places.

Columns and labels:
[1] = target: T1, human BLT-serine esterase (NP-40 solubilized HE-14 membranes) (Homo sapiens, UniProt P12544)
T1 sequence (P12544 29-262): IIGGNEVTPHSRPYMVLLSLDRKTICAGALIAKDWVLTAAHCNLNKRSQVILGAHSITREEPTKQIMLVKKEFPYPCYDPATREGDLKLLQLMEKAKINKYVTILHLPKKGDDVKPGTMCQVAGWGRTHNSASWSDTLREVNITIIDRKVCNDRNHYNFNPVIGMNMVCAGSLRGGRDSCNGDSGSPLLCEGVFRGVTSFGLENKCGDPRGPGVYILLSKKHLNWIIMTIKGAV

[2] = target: T1, human BLT-serine esterase (NP-40 solubilized HE-14 membranes); test: biochemical; details: 0.5 mM inhibitor

Row | SMILES | Esterase Activity OD412 [1] | Inhibition % [1] | inhibition of human BLT-serine esterase (in words) [1] | inhibition of human BLT-serine esterase (in words) ([1]; human enzyme) | inhibition at 500 µM [2] [%]
1 | O=S(=O)(F)Cc1ccccc1 [PMSF, phenylmethylsulfonyl fluoride] | 0.018 OD412 | 97% | inhibited | – | –
2 | Cc1ccc(S(=O)(=O)N[C@@H](CCCCN)C(=O)CCl)cc1 [TLCK, N-α-tosyl lysyl chloromethyl ketone] | 0.615 OD412 and 0.585 OD412 | -1% and 1% and 4% | not | – | –
3 | Cc1ccc(S(=O)(=O)N[C@@H](Cc2ccccc2)C(=O)CCl)cc1 [TPCK, N-tosyl-L-phenylalanine chloromethyl ketone] | – | – | – | not | 4
